# Ab-14 heavy chain CDR variants: yeast mating affinities

Antigen: PDVDLGDISGINAS, a 14-residue peptide of the SARS-CoV-2 spike HR2 region.

Each scFv is VH, three GGGGS repeats, VL, as in the parent Ab-14, and differs from it in the CDRs of the heavy chain only.
VH: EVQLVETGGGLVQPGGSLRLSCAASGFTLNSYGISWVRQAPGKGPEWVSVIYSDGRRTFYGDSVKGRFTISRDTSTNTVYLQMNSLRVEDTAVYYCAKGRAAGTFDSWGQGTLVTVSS
VL: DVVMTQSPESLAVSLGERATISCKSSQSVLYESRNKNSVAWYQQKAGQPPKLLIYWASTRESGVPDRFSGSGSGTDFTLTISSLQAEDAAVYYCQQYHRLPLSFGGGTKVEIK

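The starting antibody came from a phage panning campaign against this peptide. The library (AAYL49) carries one to three amino acid substitutions per variant, with no insertions or deletions. The assay is AlphaSeq: two haploid yeast populations carry antibody and antigen on their surface. The frequency of each diploid, read from paired DNA barcodes, reflects how well the two displayed proteins bind. The ratio of observed to expected reads was calibrated, replicate by replicate, on BCL2-family standards whose Kd was known from biolayer interferometry. The assay was run in three technical replicates.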

Substitutions are numbered in sequence along the VH above, starting at 1 (not Kabat). Affinities are written as log10 Kd with Kd in nM; a lower number is a better binder. An entry "n.d." has no value in the source: the pair was not observed among the diploids in that replicate. This suggests poor binding but is not conclusive. Parent in this assay: reference entry 0.65, copy in this library 4.11 (one replicate of three). Background: pairings of library AAYL49 with three empty control strains gave a value in 15% of cases (median 4.06, 5th percentile 2.83). Values in that range, when seen in few replicates, are hard to tell from nonspecific mating. For each scFv, signals with the empty controls are counted beside the result, with their mean in brackets.

changes,"replicates, log10 nM",control signals
S35M Y52C,n.d. / 4.78 / n.d.,0/9
G26W K65T S107K,n.d. / n.d. / n.d.,1/9 (3.17)
Y32R S63H V64I,n.d. / n.d. / n.d.,3/9 (4.66)
D62I G103H T104G,4.11 / 4.96 / n.d.,1/9 (3.12)
V50G T58A F59S,n.d. / 3.22 / n.d.,3/9 (4.28)
G26P F27I A102T,n.d. / n.d. / n.d.,0/9
G26Q R56K D106E,n.d. / n.d. / n.d.,1/9 (2.76)
I34Y S35W R100W,4.03 / 5.38 / 5.69,4/9 (4.27)
R56H R57L V64S,n.d. / n.d. / n.d.,0/9
F27V V50Q D106Y,4.79 / 3.93 / n.d.,2/9 (3.51)
Y32I S53N V64G,n.d. / 3.40 / n.d.,2/9 (3.95)
G26R T58W G99L,n.d. / n.d. / n.d.,0/9
S53A R56Q A102S,0.20 / 0.55 / 0.47,1/9 (3.66)
Y32F T58W,n.d. / 2.90 / n.d.,1/9 (3.46)
G26Y,2.78 / 2.64 / 2.81,6/9 (3.96)
G26I K65S D106V,n.d. / n.d. / n.d.,0/9
R57N K65C A101I,n.d. / n.d. / 4.24,3/9 (4.36)
R56W D106R,n.d. / n.d. / n.d.,0/9
L29N A101H A102R,n.d. / n.d. / 4.56,0/9
T28E D54K A101S,n.d. / n.d. / n.d.,0/9
Y52H R56H R57Y,n.d. / n.d. / 3.39,0/9
S31K G55Y A102K,4.50 / n.d. / n.d.,2/9 (2.64)
T58P G61M A102N,n.d. / n.d. / 4.26,1/9 (4.36)
N30W V64M G103S,2.14 / 2.47 / 2.46,2/9 (4.60)
Y60L R100K D106A,n.d. / 3.46 / 4.01,0/9
S35N D54E S63R,n.d. / 3.63 / n.d.,1/9 (2.65)
L29W S31Y K65N,n.d. / n.d. / 4.46,1/9 (2.76)
S53L D62S G99F,n.d. / 3.51 / 4.52,2/9 (4.16)
F59Q G61A F105L,1.25 / 1.18 / 1.26,1/9 (3.43)
G33M G55V D62S,n.d. / n.d. / n.d.,0/9
Y32M Y52C S53K,n.d. / n.d. / n.d.,1/9 (3.63)
I51S G61T G103A,n.d. / n.d. / n.d.,0/9
R57F,5.73 / 3.45 / n.d.,5/9 (4.00)
N30R G99T T104R,n.d. / n.d. / 5.03,1/9 (4.00)
L29I G33C T104S,n.d. / n.d. / n.d.,0/9
G26R R56Q T104Q,3.27 / 3.00 / 3.01,2/9 (4.73)
L29V Y32C G103Y,n.d. / n.d. / 4.80,0/9
Y32T G33K D62S,n.d. / n.d. / n.d.,4/9 (4.28)
F27N I51P G99F,n.d. / n.d. / n.d.,0/9
G26M D62S F105C,n.d. / n.d. / n.d.,0/9
N30S A101W G103V,n.d. / n.d. / n.d.,1/9 (3.24)
I51H K65E G99N,n.d. / n.d. / n.d.,2/9 (4.02)

Excerpt, the final 5 entries:

changes,"replicates, log10 nM",control signals
Y32T G33K D62S,n.d. / n.d. / n.d.,4/9 (4.28)
F27N I51P G99F,n.d. / n.d. / n.d.,0/9
G26M D62S F105C,n.d. / n.d. / n.d.,0/9
N30S A101W G103V,n.d. / n.d. / n.d.,1/9 (3.24)
I51H K65E G99N,n.d. / n.d. / n.d.,2/9 (4.02)

Values reported by Engelhart et al. 2022, doi:10.1038/s41597-022-01779-4 (FLAb copy).